Measured values taken from ChEMBL document CHEMBL1133369, “Synthesis and preliminary biological evaluation of [3H]-MRE 3008-F20: the first high affinity radioligand antagonist for the human A3 adenosine receptors” (Bioorg Med Chem Lett, 2000).

By UniProt entry, the sequences of proteins in these tests, tags left out.
UniProt P0DMS8, whole entry, looked up: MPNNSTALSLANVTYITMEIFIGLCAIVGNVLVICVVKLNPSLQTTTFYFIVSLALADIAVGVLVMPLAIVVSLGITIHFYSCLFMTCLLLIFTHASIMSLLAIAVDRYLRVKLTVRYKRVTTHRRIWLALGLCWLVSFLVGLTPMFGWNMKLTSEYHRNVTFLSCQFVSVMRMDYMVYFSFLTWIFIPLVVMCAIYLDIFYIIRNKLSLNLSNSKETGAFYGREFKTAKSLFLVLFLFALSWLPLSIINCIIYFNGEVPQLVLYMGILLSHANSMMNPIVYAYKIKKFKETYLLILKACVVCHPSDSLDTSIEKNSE
UniProt P30542, whole entry, looked up: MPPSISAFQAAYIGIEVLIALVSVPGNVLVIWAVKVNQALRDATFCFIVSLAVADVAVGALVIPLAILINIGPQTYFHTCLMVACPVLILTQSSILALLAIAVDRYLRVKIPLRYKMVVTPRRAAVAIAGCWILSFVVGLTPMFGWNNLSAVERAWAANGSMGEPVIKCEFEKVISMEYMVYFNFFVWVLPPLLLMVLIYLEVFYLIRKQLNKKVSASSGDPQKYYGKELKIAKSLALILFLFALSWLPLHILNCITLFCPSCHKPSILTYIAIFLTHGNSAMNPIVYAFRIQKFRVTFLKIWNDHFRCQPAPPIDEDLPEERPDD

What was measured:
[1] = biological target: Adenosine receptors; A2a & A3 (Homo sapiens) (UniProt P0DMS8+P29274); test: Selectivity ratio for binding affinities of human Adenosine A2A and Adenosine A3 receptors; type: protein assay
[2] = biological target: Adenosine receptors; A1 & A3 (Homo sapiens) (UniProt P30542+P0DMS8); test: Selectivity ratio for binding affinities of human Adenosine A1 and Adenosine A3 receptors; type: protein assay

- Ratio [1]: 486
- Ratio [2]: 4150
SMILES: CCCn1cc2c(nc(NC(=O)Nc3ccc(OC)cc3)n3nc(-c4ccco4)nc23)n1
